Experimental data published in ChEMBL document CHEMBL6182899, “Shooting an Arrow against Convulsion: Novel Triazole-Grafted Benzenesulfonamide Derivatives as Carbonic Anhydrase II and VII Inhibitors” (J Med Chem, 2025).

Tested on: Mus musculus
Format: functional, organism-based
Conditions: dose 100.0 mg/kg, route ip, time 30.0 min; call rule not given here

Structure (SMILES): CCCC(CCC)C(=O)O [VALPROIC ACID]
- Activity: Not active; Moderate Nuclear Pyknosis Observed
